Reference: patent US20130197032A1, “[…] COMPOUNDS FOR THE TREATMENT OF NEUROLOGICAL AND […] DISORDERS” (A. CARLSSON RESEARCH AB, priority 2010, published 2013)

Sequences of proteins named here, by UniProt entry; tags and fusion partners are left off. A change or cut given only in a name is not applied to a line headed by its entry. A line that says so, or that is headed by a name, gives the form on record, which may keep a tag or linker. Residues count along the entry.
UniProt P14416, 1-414 isoform P14416-2: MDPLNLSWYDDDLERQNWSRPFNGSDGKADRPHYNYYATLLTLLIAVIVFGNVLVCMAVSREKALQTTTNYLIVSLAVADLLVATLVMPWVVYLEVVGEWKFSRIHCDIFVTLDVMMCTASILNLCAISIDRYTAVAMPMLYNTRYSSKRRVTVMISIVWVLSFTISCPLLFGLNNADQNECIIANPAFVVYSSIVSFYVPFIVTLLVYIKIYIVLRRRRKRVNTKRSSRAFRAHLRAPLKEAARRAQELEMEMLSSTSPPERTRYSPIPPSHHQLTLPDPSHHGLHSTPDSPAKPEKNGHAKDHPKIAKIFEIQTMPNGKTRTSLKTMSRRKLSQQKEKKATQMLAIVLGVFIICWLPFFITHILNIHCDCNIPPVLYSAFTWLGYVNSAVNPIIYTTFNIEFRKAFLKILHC
UniProt P28223, whole entry: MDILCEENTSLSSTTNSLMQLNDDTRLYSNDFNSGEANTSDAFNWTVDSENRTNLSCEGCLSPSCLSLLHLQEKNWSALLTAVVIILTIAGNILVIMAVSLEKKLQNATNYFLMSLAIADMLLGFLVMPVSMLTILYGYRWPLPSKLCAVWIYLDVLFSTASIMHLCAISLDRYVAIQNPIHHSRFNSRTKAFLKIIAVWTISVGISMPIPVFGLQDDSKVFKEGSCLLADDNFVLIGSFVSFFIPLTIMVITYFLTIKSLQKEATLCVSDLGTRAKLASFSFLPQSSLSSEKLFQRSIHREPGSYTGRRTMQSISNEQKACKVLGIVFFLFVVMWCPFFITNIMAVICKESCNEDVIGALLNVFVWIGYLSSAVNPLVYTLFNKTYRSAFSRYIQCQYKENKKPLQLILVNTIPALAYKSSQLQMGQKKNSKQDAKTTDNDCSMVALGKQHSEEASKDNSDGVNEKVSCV
UniProt P21917, with tags, fused parts or gaps DEL265-296: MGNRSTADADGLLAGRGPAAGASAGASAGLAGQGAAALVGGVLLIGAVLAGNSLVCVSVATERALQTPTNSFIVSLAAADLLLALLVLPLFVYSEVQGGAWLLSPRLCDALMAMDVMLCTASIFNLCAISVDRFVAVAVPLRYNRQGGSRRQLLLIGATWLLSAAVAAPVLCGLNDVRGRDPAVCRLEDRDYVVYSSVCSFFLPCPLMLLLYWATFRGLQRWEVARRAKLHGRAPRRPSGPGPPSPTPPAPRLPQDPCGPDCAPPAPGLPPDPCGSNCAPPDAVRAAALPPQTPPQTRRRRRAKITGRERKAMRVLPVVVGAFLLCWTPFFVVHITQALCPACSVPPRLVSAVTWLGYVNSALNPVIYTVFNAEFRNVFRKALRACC
UniProt P41595, whole entry: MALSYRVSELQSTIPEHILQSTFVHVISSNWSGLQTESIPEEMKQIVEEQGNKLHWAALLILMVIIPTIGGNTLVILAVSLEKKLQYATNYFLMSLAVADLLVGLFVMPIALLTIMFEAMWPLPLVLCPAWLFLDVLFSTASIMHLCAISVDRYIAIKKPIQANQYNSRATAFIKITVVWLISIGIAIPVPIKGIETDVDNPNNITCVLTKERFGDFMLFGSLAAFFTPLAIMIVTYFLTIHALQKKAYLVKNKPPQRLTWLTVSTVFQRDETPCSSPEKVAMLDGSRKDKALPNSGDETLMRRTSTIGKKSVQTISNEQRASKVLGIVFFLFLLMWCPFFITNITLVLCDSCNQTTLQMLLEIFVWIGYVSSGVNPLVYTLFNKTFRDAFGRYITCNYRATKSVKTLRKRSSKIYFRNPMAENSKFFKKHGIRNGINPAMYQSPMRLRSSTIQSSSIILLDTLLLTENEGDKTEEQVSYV

What was measured:
D2 receptors [1] = target: T1, D2 receptors (Homo sapiens, UniProt P14416); assay: R-SAT functional assay at D2; conditions: R-SAT pEC50, Table 2; negative logarithm of EC50 in molar; NIH3T3 cells; mean ± SEM
D2 receptors [2] = target: T1, D2 receptors; assay: GTPγS binding assay at D2; assay type: biochemical; parameters: expressed in transfected cells; conditions: negative logarithm of EC50 in molar; HEK293T membranes; mean ± SEM; read-out: GTPγS pEC50 (converted)
D2 receptors [3] = target: T1, D2 receptors; assay: BRET2 beta-arrestin-2 recruitment assay at D2; assay type: cell-based; parameters: expressed in transfected cells; host or cells: HEK-293T; conditions: negative logarithm of EC50 in molar; HEK293T cells; mean ± SEM; read-out: BRET2 pEC50 (converted)
human 5-HT2A receptors [4] = target: T2, human 5-HT2A receptors (Homo sapiens, UniProt P28223); assay: R-SAT functional assay at 5-HT2A
human 5-HT2A receptors [5] = target: T2, human 5-HT2A receptors; assay: BRET2 beta-arrestin-2 recruitment assay at 5-HT2A
human 5-HT2A receptors [6] = target: T2, human 5-HT2A receptors; assay: Phosphatidyl inositol (PI) hydrolysis assay at 5-HT2A
[7] = target: human D4 (variant 4.2) receptor (Homo sapiens, UniProt P21917, DEL265-296); assay: cell-based
5-HT2B receptors = 5-HT2B receptors (Homo sapiens, UniProt P41595); assay: R-SAT assay 5-HT2B; assay type: cell-based; parameters: expressed in transfected cells; host or cells: NIH/3T3

pEC50 (D2 receptors [1]): 8.00
EC50 (D2 receptors [2]): 20 nM
EC50 (D2 receptors [3]): 316 nM
SMILES: CCCN1CCCC(c2cccc(O)c2)C1 (single isomer, unassigned; (-)) [(−)-3-PPP, [3-(3-hydroxyphenyl)-N-n-propyl]piperidine]

SMILES: CCCN1CCC[C@@H]2Cc3n[nH]cc3C[C@H]21 [Quinpirole]
R-SAT Eff (%) (human 5-HT2A receptors [4]): 131 ± 14%
pEC50 (human 5-HT2A receptors [4]; R-SAT pEC50): 5.90
BRET2 Eff % (human 5-HT2A receptors [5]): 91 ± 5%
pEC50 (human 5-HT2A receptors [5]): 5.40
pEC50 (human 5-HT2A receptors [6]): 5.60
PI Hydrolysis Eff (%) (human 5-HT2A receptors [6]): 88 ± 13%

SMILES: CCCN1CCC[C@@H](c2cccc(S(C)(=O)=O)c2)C1 [(−)-OSU6162, (3S)-3-[3-(methylsulfonyl)phenyl]-1-propylpiperidine]
pEC50 [7]: < 5.00

SMILES: CCCN1CCC[C@H](c2cccc(S(C)(=O)=O)c2)C1 [(+)-OSU6162, (3R)-3-[3-(methylsulfonyl)phenyl]-1-propylpiperidine]
fold less potency at 5-HT2B receptors than (−)-OSU6162 (5-HT2B receptors): approximately 10 fold

pEC50 (D2 receptors [1]): 7.40
EC50 (D2 receptors [2]): 79.4 nM
EC50 (D2 receptors [3]): 5010 nM
SMILES: CCCN1CCCC(c2cccc(O)c2)C1 (single isomer, unassigned; (+)) [(+)-3-PPP, [3-(3-hydroxyphenyl)-N-n-propyl]piperidine]

pEC50: −log10 of the molar value. One block for each compound: values may come before it.
